The values below come from PMC3816987.

By UniProt entry, the sequences of proteins in these tests, tags left out. Residues count along the entry.
UniProt P50586, 1-242: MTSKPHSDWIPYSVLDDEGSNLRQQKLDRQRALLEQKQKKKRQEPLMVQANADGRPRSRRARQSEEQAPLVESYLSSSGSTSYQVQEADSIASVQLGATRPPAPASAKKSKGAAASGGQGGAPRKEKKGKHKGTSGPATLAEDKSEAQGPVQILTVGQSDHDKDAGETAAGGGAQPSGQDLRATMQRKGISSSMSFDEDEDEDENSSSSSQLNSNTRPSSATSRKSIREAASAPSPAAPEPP

The target of the test is GST-free tubby-N (tubby N-terminus, 1M-242P) (mouse) (UniProt P50586). Nature of the test: phage binding assay.

The substance “Paf1/RNA polymerase II complex component (Rtf1) phage clone, 69N-186K (domain or fragment)” registered a binding specificity, clonal phage vs. control phage of 6.4 X.
